Experimental data reported in patent US20140088192A1, “SUBCUTANEOUSLY INFUSIBLE LEVODOPA PRODRUG COMPOSITIONS AND METHODS OF INFUSION” (SynAgile Corporation, priority 2010, published 2014).

Tests used:
[1] = Hydrolysis of LDEE salts to LD in aqueous solution, monitored by HPLC; assay type: physicochemical; settings: 2.5 M, pH 4.5 citrate, 4 days at 29° C.-30° C.
[2] = Achievable concentration and density of concentrated LDEE salt solutions

CCOC(=O)[C@@H](N)Cc1ccc(O)c(O)c1.Cl [LDEE.HCl, LDEE Hydrochloride]
% of the LDEE.HCl hydrolyzed [1]: 3.4%
density ([2]; 2.6 M LDEE.HCl solution): about 1.17 g/mL
density ([2]; 2.9 M LDEE.HCl solution): about 1.19 g/mL
